We go through one molecule from PMC9433822, “Enzymological and structural characterization of Arabidopsis thaliana heme oxygenase‐1” (FEBS Open Bio, 2022).

In this assay the target is T1, AtHO-1 (Arabidopsis thaliana, UniProt O48782).
T1 construct: gene HO1; mature protein residues 55-282 (transit peptide removed), N-terminal His tag kept, pET-28a(+), E. coli BL21(DE3); two molecules in the asymmetric unit
T1 sequence (O48782 55-282): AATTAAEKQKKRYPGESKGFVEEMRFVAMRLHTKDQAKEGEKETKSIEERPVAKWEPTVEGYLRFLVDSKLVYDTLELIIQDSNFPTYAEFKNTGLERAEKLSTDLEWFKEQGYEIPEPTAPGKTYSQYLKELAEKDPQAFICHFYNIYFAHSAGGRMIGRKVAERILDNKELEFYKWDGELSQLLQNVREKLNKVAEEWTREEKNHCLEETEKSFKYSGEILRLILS
The experiment in a line: isothermal titration calorimetry. Type of assay: binding. On the technique in general: Isothermal titration calorimetry measures the heat released or taken up as one component is titrated into another.

Usually Kd stands for the equilibrium constant for the complex coming apart. Lower therefore signals tighter binding.

Molecule `C=CC1=C(C)C2=Cc3c(C=C)c(C)c4[n]3[Fe]([Cl])[n]3c(c(C)c(CCC(=O)O)c3=CC3=NC(=C4)C(C)=C3CCC(=O)O)=CC1=N2` [heme] had a Kd of 260 ± 10 nM.
